# System: female Sprague Dawley rats
# Experiment: Operant alcohol (10%) self-administration, FR2 schedule, 60-min sessions
# Type: in vivo, rat
# Settings: 0.3-3.0 mg/kg IP, combination vs single drugs
# Experimental: Animals. A total of 10 female Sprague Dawley rats (Charles River, Wilmington, MA) were used for the alcohol self-administration studies. Separate groups of female rats (N=16) were used to assess the impact of vehicle (control, N=4), MG (N=4, 3.0 mg/kg), NTX (N=4, 3 mg/kg) and MG+NTX (N=4, 3.0 mg/kg/3.0 mg/kg) on locomotor activity in open field chambers. These same rats were used in the cFos immunohistochemistry study. Rats were initially housed 3-5 to a cage in polypropylene cages housed in circular towers (Animal Care Systems, Inc, Centennial, CO) located within a temperature- and humidity-controlled vivarium that was maintained on a 12:12 light/dark cycle (lights on at 6 AM). Rats weighed about 250-350 gm at the start of the experiment and were at least 100 days old. Food and water were available ad libitum throughout the study. […]
# Statistical Analysis. The self-administration data were analyzed with ANOVAs to compare the two measures of appetitive responding (numbers of active lever presses and head entries) and the two measures of consummatory responding (numbers of reinforcers earned and estimated total alcohol intake in g/kg). […]
structure (smiles),measurement,value
"O=C1CC[C@@]2(O)[C@H]3Cc4ccc(O)c5c4[C@@]2(CCN3CC2CC2)[C@H]1O5 [NTX, naltrexone]","Alcohol self-administration overall, relative efficacy of drug conditions",least significant effects
